## Antibody variant affinities, Ab-14 heavy chain, assay B

Values reported by Li et al. 2023, doi:10.1038/s41467-023-39022-2 (FLAb copy).

All variants were tested on one target, the spike HR2 peptide PDVDLGDISGINAS (SARS-CoV-2).

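The parent was found by panning a naive human phage display library on the peptide. Designed CDR sequences, proposed from the first random library and measured here. Group labels follow the data file (Ctrl: baseline library sampled from a position-specific scoring matrix, with some repeated check sequences; Rand: our label for a block that the file lists under HC and that is probably the random mutants of the ten best first-round binders; En: ensemble of fine-tuned language models; GP: Gaussian process model; GPLM: also part of the Gaussian process libraries; HC: hill climbing; Gen: genetic algorithm; Gibbs: Gibbs sampling; a sequence that several methods proposed may carry one label only). AlphaSeq pools MATa yeast showing the antibodies with MATalpha yeast showing the peptide. The frequency of each diploid, read from paired DNA barcodes, reflects how well the two displayed proteins bind. Each replicate has its own calibration line, from reference interactions of the BCL2 family. The assay was run in six technical replicates.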

Parent scFv Ab-14: VH joined to VL by three GGGGS repeats. Changes lie in the heavy chain CDRs alone.
VH: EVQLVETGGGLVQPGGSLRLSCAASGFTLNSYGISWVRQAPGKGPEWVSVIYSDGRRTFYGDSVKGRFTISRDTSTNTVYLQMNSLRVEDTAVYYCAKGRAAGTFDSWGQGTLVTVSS
VL: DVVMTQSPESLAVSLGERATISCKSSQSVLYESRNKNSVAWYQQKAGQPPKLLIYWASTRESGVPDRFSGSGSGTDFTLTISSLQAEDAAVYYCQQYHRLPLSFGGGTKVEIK

Each variant is given by its three heavy chain CDRs, as the data file delimits them; those of the parent are GFTLNSYGIS, VIYSDGRRTFYGDSVK, GRAAGTFDS. Scale: log10 of Kd in nM, estimated from mating counts; low values are strong binders. Averages over replicates are reported, and they cover detected replicates only. A pair that was not seen in any replicate is written "nd"; this usually means weak binding, but a binder can also be missed.

| CDR-H1 | CDR-H2 | CDR-H3 | group | mean log10 Kd (nM) | detected | control signals |
|---|---|---|---|---|---|---|
| GFDLNSYGIS | VIYSDGRRTFYTDNVK | GRTAGTFDS | GP_Gibbs | 0.03 | 6 of 6 | 0 of 18 |
| GFDLDEYGIS | VIYADGKRTAYADSVK | GEVAGTFDA | En_Gen | 0.04 | 6 of 6 | 0 of 18 |
| GFDLNEYGIS | VIYADGMRTAYADDVK | GANAGTFDM | En_Gen | -0.39 | 6 of 6 | 0 of 18 |
| GFTLNDYGIS | VIYSDGRRTFYGDSVK | GQAAGTFDS | Ctrl | 1.21 | 6 of 6 | 1 of 18 |
| GFDLNSYGIS | VIYSDGRRTFYADQVK | GKAAGTFDS | GP_Gen | 0.10 | 6 of 6 | 0 of 18 |
| GFDLNSYGIS | VIYSDGRRTFYSDSVK | GWAGGTFDS | GP_HC | 2.11 | 1 of 6 | 0 of 18 |
| GFWLNEYGIS | VIYSDGRRTFYDDSVK | GRFAGTFDS | GP_HC | 1.16 | 6 of 6 | 0 of 18 |
| GFDLNEYGIS | VIYADGMRTAYADKVK | GENAGTFDV | En_Gen | -0.19 | 6 of 6 | 0 of 18 |
| GFDLNSYGIS | VIYSDGRRTFYADKVK | GQAAGTFDS | GP_Gen | 0.43 | 5 of 6 | 0 of 18 |
| GFDLNEYGIS | VIYADGRRTQYIDSVK | GEAAGTFDV | En_HC | -0.60 | 6 of 6 | 0 of 18 |
| GFTLNEYGIS | VIYSDGRRTFYGDSVK | GHAAGTFDM | GP_HC | 0.72 | 6 of 6 | 0 of 18 |
| GFDLNEYGIS | VIYADGMRTAYVDSVK | GNQAGTFDL | En_Gen | -0.08 | 6 of 6 | 1 of 18 |
| GFDLNEYGVS | VIYADGVRSAYTSSVK | GVGNVDIML | En_Gibbs | nd | 0 of 6 | 0 of 18 |
| GFDLNSYGIS | VIYSDGMRTFYGDSVK | GRNAGTFDS | GP_Gen | -0.04 | 5 of 6 | 0 of 18 |
| GFDLNEYGIS | VIYADGRRTAYSDSVK | GEVAGTFVL | En_HC | 0.11 | 6 of 6 | 1 of 18 |
| GFDLNEYGIS | VIYADGFRTFYTDSVK | GEVAGTFDF | En_HC | -0.69 | 6 of 6 | 0 of 18 |
| GFNLNEYGIS | VIYADGRRKFYADSVK | GNTAGTFDK | En_HC | -0.44 | 6 of 6 | 1 of 18 |
| GFGLDEYGIS | VIYADGERKYYTDNVK | GHFGEDGIV | En_Gibbs | nd | 0 of 6 | 0 of 18 |
| GFDLNEYGIS | VIYADGVRTFYADSVK | GQAAGTFTL | En_HC | nd | 0 of 6 | 0 of 18 |
| GFTLNSYGIS | VIYSDGQRTFYGDDVK | GRAAGTFDS | Ctrl | 2.67 | 3 of 6 | 0 of 18 |
| GFTLNSYGIS | VIYSDGRRTFYSDSVK | GSAAGTFDV | GP_HC | 1.51 | 4 of 6 | 0 of 18 |
| GFTLDSYGIS | VIYADGRRTFYGDSVK | GEAAGTFRS | Ctrl | 0.21 | 6 of 6 | 1 of 18 |
| GQDLNEYGIS | VIYADGLRQAYSENVK | GNISQFDDV | En_Gibbs | nd | 0 of 6 | 0 of 18 |
| GFTLDSYGIS | VIYSDGRRTFYCDSVK | GRAAGTFDS | GP_HC | 1.74 | 4 of 6 | 0 of 18 |
| GFDLNSYGIS | VIYSDGRRTFYGDDVK | GRAAGHFWS | GP_HC | 0.63 | 4 of 6 | 0 of 18 |
| GFDLNEYGIS | VIYADGRRSFYADSVK | GNLAGTFDS | En_HC | -0.63 | 6 of 6 | 0 of 18 |
| GFTLNSYHIS | VILADGRRTFYGDSVK | GGAAGTNKS | Rand | nd | 0 of 6 | 0 of 18 |
| GFNIDEYGIS | VIYADGMRTAYSNAVK | GNVNGDTFS | En_Gibbs | nd | 0 of 6 | 0 of 18 |
| GFTLNDYGIS | VIYSDGRRTQYHDSVK | GRAAGTFDS | Rand | 1.64 | 2 of 6 | 0 of 18 |
| GFNLNSYGIS | VIYSDGVRTFYGESVK | GRAAGTFDS | Ctrl | 0.87 | 2 of 6 | 0 of 18 |
| GFTLNSYGIS | VIYSDGRRTFYLDSVK | GDAAGTFDS | Ctrl | nd | 0 of 6 | 0 of 18 |
| GFTLNSYGIS | VIYSDGRRTFYGDSVK | GRAAGTFMS | Ctrl | 2.09 | 2 of 6 | 0 of 18 |
| GFTLNEYGIS | VIYSDGRRTFYTDSVK | GRFAGTFDL | GPLM_HC | 0.58 | 6 of 6 | 0 of 18 |
| GMDLNEYGIS | VIYADGRRTAYINQVK | GSNSDTVSL | En_Gibbs | nd | 0 of 6 | 0 of 18 |
| GFDLNSYGIS | VIYSDGRRTFYLDSVK | GNTAGTFDS | GP_Gibbs | 0.60 | 6 of 6 | 1 of 18 |
| GFQLDEYGIS | VIYADGQRTAYSKNVK | GYIDFKLIG | En_Gibbs | 2.24 | 1 of 6 | 1 of 18 |
| GFTLNEYGIS | VIYSDGRETFYQDSVK | GRAAVTFDQ | Rand | nd | 0 of 6 | 0 of 18 |
| GFDLNEYGIS | VIYADGRRTYYADSVK | GNVAGTFDM | En_Gen | -0.07 | 6 of 6 | 0 of 18 |
| GFDLNEYGIS | VIYADGRRTAYIDSVK | GEVAGTFDV | En_Gen | 0.18 | 6 of 6 | 0 of 18 |
| GFDLNEYGIS | VIYADGMRTYYIDSVK | GNAAGTFDV | En_HC | -0.65 | 6 of 6 | 1 of 18 |
| GFTLNEYGIS | VIYSDGRRTFTTDSVK | TRFAGTFDS | Rand | nd | 0 of 6 | 0 of 18 |
| GFDLNEYGIS | VIYADGKRTAYADSVK | GKAAGTFDS | En_HC | 0.50 | 6 of 6 | 0 of 18 |
| GFDLNEYGIS | VIYADGRRTFYADSVK | GEVAGTFVV | En_HC | 0.07 | 6 of 6 | 0 of 18 |
| SFNLEEYGIS | VIYADGKRSVYADSVK | GHTSGWFAM | En_Gibbs | nd | 0 of 6 | 0 of 18 |
| GFDLNSYGIS | VIYSDGRRTFYHDSVK | GRLAGTFDS | GPLM_Gen | -0.18 | 6 of 6 | 1 of 18 |
| GFDLNEYGIS | VIYADGMRTAYIDSVK | GEVAGTFDQ | En_Gen | -0.69 | 6 of 6 | 0 of 18 |
| GFDLNSYGIS | VIYSDGRRTFYGDSVK | GRVAGTFES | GP_HC | 0.60 | 5 of 6 | 0 of 18 |
| GFDLNEYGIS | VIYADGRRTFYTDSVK | GGNAGTFDN | En_HC | -0.55 | 6 of 6 | 0 of 18 |
| GFSLNEYGIS | VIYSDGRRTFYSDSVK | GNAAGTFDS | GPLM_HC | 0.03 | 6 of 6 | 0 of 18 |
| GFTLNEYGIS | VIYSDGRRTAYGDSVD | GEEAGTFDS | Ctrl | 0.16 | 6 of 6 | 0 of 18 |
| GFDLDEYGIS | VIYADGKRTAYSDSVK | GGNAGTFDL | En_Gen | -0.57 | 6 of 6 | 0 of 18 |
| GFTLNSYGIS | VDYSDGLRTFYGDSVK | GRAAGTFDS | Ctrl | nd | 0 of 6 | 0 of 18 |
| GFTLNSYGIS | VIYSDGRRTFYGDSVK | GREAGTFDC | Ctrl | nd | 0 of 6 | 0 of 18 |
| GFDLDEEGIS | VIYADGMRTAYAQKVK | GQETDTNVT | En_Gibbs | nd | 0 of 6 | 0 of 18 |
| GFTLNEYGIS | VIYSDGLRTFYTDSVK | GQAAGTFDS | Ctrl | 0.65 | 6 of 6 | 0 of 18 |
| GFTLNDYGDS | VIYSDGRRTQYIDSVK | GRAMGTFDS | Rand | 1.66 | 1 of 6 | 1 of 18 |
| GFELNAYGIS | VIYSDGRRTAYGDSVK | GRQAGTFDS | GP_Gibbs | 1.35 | 5 of 6 | 0 of 18 |
| GFTLNDYGIS | VIYSDGRRTFYGDSVK | GRLAGTFDI | GP_HC | 0.57 | 6 of 6 | 0 of 18 |
| GFNLNEYGIS | VIYADGRRTFYADSVK | GEIAGTFDV | En_HC | -0.80 | 6 of 6 | 0 of 18 |
| GFDLEDYGIS | VIYADGMRTAYADSVK | GNTAGTFDV | En_Gen | -0.71 | 6 of 6 | 0 of 18 |
| GFTLDSYGIS | VIYSDGRFTFYGDSVK | GRGAGTALS | Rand | nd | 0 of 6 | 0 of 18 |
| GFDLNSYGIS | VIYSDGRRTFYQDRVK | GEAAGTFDS | GP_Gen | 1.65 | 6 of 6 | 0 of 18 |
| GFSLNSYGIS | VIYSDGRRTFYADSVK | GHLAGTFDS | GPLM_Gen | 0.58 | 6 of 6 | 0 of 18 |
| GFQLNSYGIS | VIYADGRRTFYGDSVK | GRAAGTFDS | GPLM_Gen | 0.31 | 6 of 6 | 0 of 18 |
| GFDLEEYGIS | VIYADGMRTQYINAVK | GIIVDNLDL | En_Gibbs | nd | 0 of 6 | 0 of 18 |

The first 9 entries again:

{"CDR-H1": "GFDLNSYGIS", "CDR-H2": "VIYSDGRRTFYTDNVK", "CDR-H3": "GRTAGTFDS", "group": "GP_Gibbs", "mean log10 Kd (nM)": "0.03", "detected": "6 of 6", "control signals": "0 of 18"}
{"CDR-H1": "GFDLDEYGIS", "CDR-H2": "VIYADGKRTAYADSVK", "CDR-H3": "GEVAGTFDA", "group": "En_Gen", "mean log10 Kd (nM)": "0.04", "detected": "6 of 6", "control signals": "0 of 18"}
{"CDR-H1": "GFDLNEYGIS", "CDR-H2": "VIYADGMRTAYADDVK", "CDR-H3": "GANAGTFDM", "group": "En_Gen", "mean log10 Kd (nM)": "-0.39", "detected": "6 of 6", "control signals": "0 of 18"}
{"CDR-H1": "GFTLNDYGIS", "CDR-H2": "VIYSDGRRTFYGDSVK", "CDR-H3": "GQAAGTFDS", "group": "Ctrl", "mean log10 Kd (nM)": "1.21", "detected": "6 of 6", "control signals": "1 of 18"}
{"CDR-H1": "GFDLNSYGIS", "CDR-H2": "VIYSDGRRTFYADQVK", "CDR-H3": "GKAAGTFDS", "group": "GP_Gen", "mean log10 Kd (nM)": "0.10", "detected": "6 of 6", "control signals": "0 of 18"}
{"CDR-H1": "GFDLNSYGIS", "CDR-H2": "VIYSDGRRTFYSDSVK", "CDR-H3": "GWAGGTFDS", "group": "GP_HC", "mean log10 Kd (nM)": "2.11", "detected": "1 of 6", "control signals": "0 of 18"}
{"CDR-H1": "GFWLNEYGIS", "CDR-H2": "VIYSDGRRTFYDDSVK", "CDR-H3": "GRFAGTFDS", "group": "GP_HC", "mean log10 Kd (nM)": "1.16", "detected": "6 of 6", "control signals": "0 of 18"}
{"CDR-H1": "GFDLNEYGIS", "CDR-H2": "VIYADGMRTAYADKVK", "CDR-H3": "GENAGTFDV", "group": "En_Gen", "mean log10 Kd (nM)": "-0.19", "detected": "6 of 6", "control signals": "0 of 18"}
{"CDR-H1": "GFDLNSYGIS", "CDR-H2": "VIYSDGRRTFYADKVK", "CDR-H3": "GQAAGTFDS", "group": "GP_Gen", "mean log10 Kd (nM)": "0.43", "detected": "5 of 6", "control signals": "0 of 18"}

The authors' rule: three or more of the six replicates give a measured affinity, fewer mean a poor binder. A sequence measured in both rounds can read differently, since the two assays cover different ranges. The parent sequence was in this pool as ten entries: three were never detected, three once, and four in most replicates, with averages from 0.34 to 2.37. Nonspecific signal, from three strains lacking the peptide, appeared in 1% of pairings of all heavy chain designs, centred on 2.08 (5% of these signals below 0.84); values are not corrected for it. The control count says in how many pairings with the empty strains this scFv gave a signal.